From ChEMBL document CHEMBL1743201, “Casarett and Doull's Toxicology The Basic Science of Poisons, 7th edition” (2008)

By UniProt entry, the sequences of proteins in these tests, tags left out.
UniProt P05177, whole entry: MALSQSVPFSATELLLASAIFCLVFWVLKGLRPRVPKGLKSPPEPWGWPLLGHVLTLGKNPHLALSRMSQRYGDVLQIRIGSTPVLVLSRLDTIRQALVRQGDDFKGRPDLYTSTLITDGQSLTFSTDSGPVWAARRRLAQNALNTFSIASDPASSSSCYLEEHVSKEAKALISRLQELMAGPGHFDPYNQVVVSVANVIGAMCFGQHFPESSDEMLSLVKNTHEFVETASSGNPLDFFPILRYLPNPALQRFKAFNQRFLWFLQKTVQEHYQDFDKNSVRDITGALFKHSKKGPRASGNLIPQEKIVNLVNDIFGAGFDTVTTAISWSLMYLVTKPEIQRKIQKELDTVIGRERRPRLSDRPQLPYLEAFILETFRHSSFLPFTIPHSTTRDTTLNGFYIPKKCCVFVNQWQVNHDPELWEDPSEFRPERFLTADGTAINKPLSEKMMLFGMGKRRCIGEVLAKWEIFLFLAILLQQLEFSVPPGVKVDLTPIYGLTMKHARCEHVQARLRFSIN

Target: Cytochrome P450 1A2 (Homo sapiens, UniProt P05177)
Experiment: Clinically relevant inhibitors of human liver microsomal P450 enzymes, isoform CYP1A2
Assay type: ADME
Settings: microsomes

Activity | Structure (SMILES)
Inhibitor | O=c1cc(-c2ccccc2)oc2c1ccc1ccccc12 [ALPHA-NAPHTHOFLAVONE]
Inhibitor | Cc1nc2c([nH]1)c(=O)n(C)c(=O)n2Cc1ccco1 [FURAFYLLINE]
